# According to US8796220B2, “Vaccine for the prevention of the recurrence HER2/neu expressing cancer” (The Henry M. Jackson Foundation for the Advancement of …, priority 2007, dated 2014):
# Assays:
# [1] = in vivo
# [2] = design: species or system human; settings: in vivo
# [3] = tested on: HER2/neu expressing breast cancer; experiment: Clinical recurrence, disease-free survival and mortality in E75 vaccine trials; type: in vivo, human
# [4] = Delayed type hypersensitivity (DTH) to 100 μg E75 intradermally; type: in vivo, human
# [5] = Local reactions (LR) at injection site; type: in vivo, human
# [6] = tested on: IFN-γ producing cells; experiment: E75-specific interferon-γ ELISPOT; type: cell-based, human
structure (smiles),measurement,setting,value
CC[C@H](C)[C@H](NC(=O)[C@@H](N)CCCCN)C(=O)N[C@@H](Cc1ccccc1)C(=O)NCC(=O)N[C@@H](CO)C(=O)N[C@@H](CC(C)C)C(=O)N[C@@H](C)C(=O)N[C@@H](Cc1ccccc1)C(=O)N[C@@H](CC(C)C)C(=O)O [E75],"Grade 2 or 3 systemic toxicities, booster",[1],no grade 2 or 3 systemic toxicities
same,Grade 3 or 4 toxicities with booster,[1],no grade 3 or 4 toxicities
same,"Patients with grade 1 systemic toxicity, booster",[1],eleven
same,"Patients with grade 2 local toxicity, booster",[1],2 patients
same,Patients with higher grade toxicity during the booster than during the primary series,[1],4%
same,Tolerability of the booster dose,[1],very well tolerated
same,Grade 4 or 5 systemic toxicities,[2],no grade 4 or 5 systemic toxicities observed
same,"Local toxicity grade 1, patients",[2],81%
same,"Local toxicity grade 2, patients",[2],19%
same,"Maximum local toxicity grade 1, patients",[2],82%
same,"Maximum local toxicity grade 2, patients",[2],18%
same,Patients with 50% dose reduction in GM-CSF for significant local or systemic reactions,[2],18.7%
same,"Systemic toxicity grade 0, patients",[2],12%
same,"Systemic toxicity grade 1, patients",[2],71%
same,"Systemic toxicity grade 2, patients",[2],14%
same,"Systemic toxicity grade 3, patients",[2],2%
same,Recurrence rate,[3]; HLA-A2+ vaccinated patients,8.2%
same,Recurrence rate,[3]; HLA-A3+ vaccinated patients,9.1%
same,Recurrence rate in the vaccinated group,"[3]; median follow-up 20 months, 171 enrolled, observation group 14.2%, P=0.04",5.6%
same,"Disease-free survival rate, vaccinated group","[3]; median follow-up 20 months, control 77%",92.5%
same,Deaths in the vaccinated group,"[3]; median follow-up 20 months, four deaths in observation group",one
same,Recurrence rate in the vaccine group,"[3]; median follow-up 26 months, 186 enrolled, observation 14.8%, P=0.15",8.3%
same,"Clinical recurrence rate, ODG compared to SDG","[3]; p=0.27, shorter median follow-up in ODG",trend toward lower recurrence rates
same,Recurrence rate,"[3]; vaccinated HER2/neu low-expressors (LE), control 18.2%",10.7%
same,Recurrence rate,"[3]; vaccinated HER2/neu over-expressors (OE), control 18.2%",13.8%
same,Mortality,"[3]; vaccinated IHC 1+ patients, control 20%, p=0.04",0%
same,Mortality,"[3]; vaccinated LE patients, control 6.8%, p=0.08",0.0%
same,"Bone only recurrence, share of recurrences","[3]; vaccinated recurrent patients, control 50% (6/12), P=0.04",0%
same,Post-vaccination DTH,[4]; HLA-A2+ patients,15.1±1.9 mm
same,Post-vaccination DTH,[4]; HLA-A3+ patients,10.5±2.7 mm
same,Post-DTH,[4]; LE patients,15.9 ± 1.9 mm
same,Post-vaccination DTH response,"[4]; NN patients, pre-vaccine 2.8±0.8 mm",10.9±1.5 mm
same,Post-vaccination DTH response,[4]; NP patients,17.3±2.4 mm
same,Orthogonal mean DTH response to the peptide,"[4]; ODG, p=0.00021 vs SDG",21.5+2.5 mm
same,Post-DTH,[4]; OE patients,12.8 ± 2.0 mm
same,Orthogonal mean DTH response to the peptide,[4]; SDG,11.3+1.3 mm
same,Patients with positive post-vaccine DTH,[4]; all vaccinated patients,74%
same,Post-vaccination DTH response,[4]; patients receiving <6000 μg E75,13.3±1.9 mm
same,Post-vaccination DTH response,[4]; patients receiving a total of 6000 μg E75,25.1±4.0 mm
same,Local reaction at vaccine 3 of primary series,[5]; >9 month group,80
same,Local reaction at the end of the primary series,[5]; >9 months group,85±8 mm
same,Local reaction to booster,[5]; booster >9 months from primary series (n=13),79±4 mm
same,Local reaction to booster,"[5]; booster ≦9 months from primary series (n=12), p=0.01",103±7 mm
same,Local reaction at vaccine 3 of primary series,"[5]; ≦9 month group, p=0.04",97
same,Local reaction at the end of the primary series,[5]; ≦9 months group,81±5 mm
same,Paired assays showing increased IFN-γ producing cells with booster,[6]; 78 of 194 paired assays,40.2%
same,Pre-booster assays showing detectable IFN-γ producing cells,"[6]; 255 total assays pre-booster, after primary series",54.5%
same,"E75-specific interferon-γ ELISPOT, range post-vaccination","[6]; HLA-A3 patients, baseline 0-30, p=0.04",3-448 spots/10^6 cells
same,Patients with increased IFN-γ producing cells in at least 50% of the assays,"[6]; after booster, 11 patients",50%
same,Patients with increased IFN-γ producing cells in at least one assay,"[6]; after booster, 20/22 patients",91%
